Molecules are shown by their SMILES.

By UniProt entry, the sequences of proteins in these tests, tags left out. Where a name states a change or a piece, a line headed by the entry shows the natural chain unless it says otherwise. Residues count along the entry.
UniProt P20701, 26-1170 limits assumed: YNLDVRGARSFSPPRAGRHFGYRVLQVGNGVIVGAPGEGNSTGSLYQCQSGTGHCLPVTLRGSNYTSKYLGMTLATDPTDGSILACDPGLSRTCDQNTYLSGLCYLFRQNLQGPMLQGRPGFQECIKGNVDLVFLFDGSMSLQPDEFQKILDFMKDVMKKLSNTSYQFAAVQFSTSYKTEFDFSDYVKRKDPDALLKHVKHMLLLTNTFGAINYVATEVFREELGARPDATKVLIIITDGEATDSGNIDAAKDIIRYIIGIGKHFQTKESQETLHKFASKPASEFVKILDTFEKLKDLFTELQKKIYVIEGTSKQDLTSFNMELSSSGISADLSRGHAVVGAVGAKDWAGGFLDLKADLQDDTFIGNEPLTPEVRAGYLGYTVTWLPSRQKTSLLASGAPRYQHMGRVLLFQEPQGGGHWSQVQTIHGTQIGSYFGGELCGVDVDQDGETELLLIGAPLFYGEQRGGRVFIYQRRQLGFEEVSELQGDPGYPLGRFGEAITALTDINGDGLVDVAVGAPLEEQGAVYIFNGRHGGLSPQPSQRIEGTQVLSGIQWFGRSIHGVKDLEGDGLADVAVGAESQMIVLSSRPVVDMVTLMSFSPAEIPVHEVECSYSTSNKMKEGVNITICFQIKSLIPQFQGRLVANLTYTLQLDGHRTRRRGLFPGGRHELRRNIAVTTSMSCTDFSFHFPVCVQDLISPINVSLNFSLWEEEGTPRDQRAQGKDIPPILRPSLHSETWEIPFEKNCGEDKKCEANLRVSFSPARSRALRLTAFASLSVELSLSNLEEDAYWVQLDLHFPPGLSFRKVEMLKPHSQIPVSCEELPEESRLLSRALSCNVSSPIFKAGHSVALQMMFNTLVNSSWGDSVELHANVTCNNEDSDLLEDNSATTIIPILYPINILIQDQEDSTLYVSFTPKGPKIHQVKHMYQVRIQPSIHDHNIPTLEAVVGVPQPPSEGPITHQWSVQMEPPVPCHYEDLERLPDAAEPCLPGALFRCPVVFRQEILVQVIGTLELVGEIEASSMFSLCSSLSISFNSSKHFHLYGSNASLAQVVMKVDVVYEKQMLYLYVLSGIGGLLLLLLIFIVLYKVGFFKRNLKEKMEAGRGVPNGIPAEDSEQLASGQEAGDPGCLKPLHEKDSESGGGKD

We go through 2 compounds from patent US9023876B2, “Compounds and methods for regulating integrins” (Adhaere Pharmaceuticals, Inc., priority 2010, dated 2015).

Test [1] has as its target T1, integrin CD11b/CD18 (Homo sapiens, UniProt P11215). The test is described as follows: K562 cell adhesion assay, K562 CD11b/CD18 cells on immobilized fibrinogen (Fg). The settings on record: read-out: EC50 (effective concentration for 50% increase in adhesion), CD11b/CD18 dependent cell adhesion to Fg. As for the experimental part:
(§1) Cell adhesion assays with immobilized ligands were performed as previously described. Assays with all different K562 cell lines (K562, K562 CD11b/CD18 and K562 E320A) were performed in an identical fashion. Briefly, 384-well Highbind microtiter plates were coated with a 30 μL solution of ligand in Phosphate Buffered Saline, pH 7.4 containing 1 mM each of Ca^2+ and Mg^2+ ions (PBS^++) overnight at 4° C. Ligand Fg was coated at a concentration of […] and iC3b at […]. Heterodimer specific mAb IB4 (ascites) was coated at a 1:100 dilution. Subsequently, the non-specific sites in the wells were blocked by incubation with 1% non-fat milk in Tris Buffered Saline (TBS), pH 7.4, at room temperature for 1 h, except for the neutrophil assay, where the wells were blocked with TBS containing 1% gelatin. Next, the wells were washed three times with TBS. K562 cells were suspended in the assay buffer (TBS containing 1 mM each of Ca^2+ and Mg^2+ ions (TBS^++)) and were transferred to the ligand-coated wells (30,000 cells/well). Stock solution of the leukadherin family of small molecule agonists was prepared by dissolving the compounds in DMSO at a concentration of 2-10 mM. Final concentration of DMSO in the assay was approximately 1%. […] Cells remaining adherent were fixed using formaldehyde and were quantitated using imaging microscopy, as previously described. […]

The target in test [2] is integrin CD11a/CD18 (Homo sapiens, UniProt P20701). In words: Adhesion of K562 CD11a/CD18 cells to immobilized ICAM-1 (selectivity). The following applies: cell adhesion, K562 CD11a/CD18 on ICAM-1 vs K562 CD11b/CD18. The procedure: as §1, with “TBS.” for “TBS. K562 cells were suspended in the assay buffer (TBS containing 1 mM each of Ca^2+ and Mg^2+ ions (TBS^++)) and were transferred to the ligand-coated wells (30,000 cells/well). Stock solution of the leukadherin family of small molecule agonists was prepared by dissolving the compounds in DMSO at a concentration of 2-10 mM. Final concentration of DMSO in the assay was approximately 1%.”
Next, we determined the selectivity of compounds for integrin CD11b/CD18 over highly homologous integrin CD11a/CD18 (also known as LFA-1). […] Next, we measured the ability of LA3 to increase cell adhesion to immobilized ICAM-1, a physiologic ligand of integrin CD11a/CD18.

Test [3] addresses T1, integrin CD11b/CD18. In words: K562 CD11b/CD18 cell adhesion to immobilized iC3b. The settings on record: increasing amounts of compound. As for the experimental part:
as §1

Test [4] relates to murine neutrophils. The test is described as follows: Neutrophil chemotaxis assay in Zigmond chamber, fMLP gradient. The following applies: vs DMSO. As for the experimental part:
Neutrophil chemotaxis on 2D surfaces was performed using Zigmond chamber (Neuro Probe) as described on acid cleaned glass or Fg coated glass coverslips. Cell migration was allowed in a gradient of […] bacterial peptide formyl-methionyl-leucyl-phenylalanine (fMLP, Sigma), in the absence or presence of leukadherins ([…]). Cell migration was recorded at every 30 sec interval for a period of 25 min using a Nikon Eclipse 90i inverted microscope. Images were acquired with a Nikon DS camera using a PLAN APO 20X differential interference contrast (DIC) microscopy objective and captured into Nikon Imaging software. Analysis of neutrophil migration was performed with the motile population that had moved more than 10 μm using ImageJ software (NIH, USA) with manual cell tracking using the Ibidi chemotaxis and migration tool plugin for ImageJ. Migration velocity and the total displacement (distance from origin) were also analyzed. Quantitation was performed using at least 50 independent cells per condition from at least three independent experiments.
Leukocyte chemotaxis on 2D surfaces involves integrin-mediated sequential adhesion and de-adhesion steps [77]. […] To test if increased cell-adhesion by leukaderins affects cell migration, we used murine neutrophils chemotaxing in response to a gradient of chemokine peptide formyl-Met-Leu-Phe (fMLP). […] However, treatment with LA1, LA2 or LA3 lead to a significant decrease in the lateral migration and the migration velocity of these cells (FIG. 2A-C). […] Yet, leukadherins reduced the efficiency of trans-endothelial migration (TEM) by THP-1 cells across a TNFα-activated HUVEC layer in vitro by increasing cell adhesion to the HUVEC layer.

The subject of test [5] is WT B6 mice. The test is described as follows: Thioglycollate-induced peritonitis, WT mice. The settings on record: given 30 min prior to thioglycollate, 4 h, vs vehicle. The procedure: Thioglycollate-induced peritonitis was performed as previously described, using 8-10 week old WT B6 and CD11b^−/− B6 mice. Leukadherin agonists were administered thirty min prior to intra peritoneal (i.p.) thioglycollate (3%) injection. LA1 and LA2 ([…] of 20 mM solution in saline) were administered intra venously (i.v.). LA3 was administered i.p. (1 mL of 20 mM solution in saline). To evaluate peritoneal neutrophil recruitment, […], the peritoneal lavage was collected and the number of emigrated neutrophils was quantified using double positive cells for GR-1 and Mac-1 staining as described.
To determine the effects of LA1-3 on inflammatory responses in vivo, we monitored their effects on neutrophil recruitment upon acute thioglycollate-induced peritonitis in mice.

The subject of test [6] is B6 male mice. The test is described as follows: Renal I/R injury in mice. The settings on record: given 30 min prior to I/R injury, 24 h post-ischemia, vs DMSO; not shown. The procedure: Leukadherins reduce renal I/R injury. To evaluate use of leukadherins in the I/R injury induced changes in the kidney function of WT mice, we performed another experiment. B6 male mice (8-12 weeks of age) were anesthetized and kept on a heating pad to keep them at a constant 37° C. temperature. Next, an abdominal incision was made and the renal pedicles were occluded bilaterally with a nontraumatic vascular clamp for 30 minutes, the clamp then removed and the surgical incision was closed. Sham surgery was performed with an identical procedure but without application of the clamps. Renal I/R injury was assessed at 24 h post-ischemia by measuring the serum creatinine levels. Mouse sera from the tail incision was used for the analyses of sCr (and BUN levels (not shown)) using manual kits (Stanbio Laboratory).

As to `CCOC(=O)CN1C(=O)SC(=Cc2ccc(-c3ccc(Cl)cc3Cl)o2)C1=O`, the EC50 in test [1] stood at 14 µM. Moreover, the “selectivity for integrin CD11b/CD18 over CD11a/CD18” value in test [2] is “two-fold higher selectivity”. For the same compound, the “K562 CD11b/CD18 cells adhering to immobilized iC3b” value in test [3] is listed as “increase binding of CD11b/CD18 to iC3b in a dose-dependent fashion”. In test [4], the “lateral migration of neutrophils” value is “significant decrease” and the “migration velocity of neutrophils” value is “significant decrease”. Also, the “reduction of peritoneal neutrophil accumulation” value in test [5] is listed as 55%.

As for `O=C(O)c1ccc(-c2ccc(C=C3SC(=O)N(c4ccccc4)C3=O)o2)cc1`, in test [1], the EC50 was 12 µM. In addition, the “K562 CD11b/CD18 cells adhering to immobilized iC3b” value in test [3] is listed as “increase binding of CD11b/CD18 to iC3b in a dose-dependent fashion”. In test [4], the “lateral migration of neutrophils” value is on record as “significant decrease” and the “migration velocity of neutrophils” value is recorded as “significant decrease”. Besides, the “reduction of peritoneal neutrophil accumulation” value in test [5] worked out at 65%. In addition, the “serum creatinine (sCr) levels” value in test [6] is “significant reduction”.
